The chains behind the UniProt entries cited, without tags or fusion partners. Residues count along the entry.
UniProt P37231, 212-505 limits assumed: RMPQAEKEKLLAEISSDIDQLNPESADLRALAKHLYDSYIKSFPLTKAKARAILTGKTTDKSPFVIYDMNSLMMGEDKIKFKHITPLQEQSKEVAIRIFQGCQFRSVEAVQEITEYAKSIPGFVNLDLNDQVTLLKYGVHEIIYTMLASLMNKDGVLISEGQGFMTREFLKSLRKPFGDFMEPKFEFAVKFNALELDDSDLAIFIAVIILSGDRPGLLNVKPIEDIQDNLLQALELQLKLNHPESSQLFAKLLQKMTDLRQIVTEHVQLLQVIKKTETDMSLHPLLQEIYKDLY
UniProt Q07869, 175-468 limits assumed: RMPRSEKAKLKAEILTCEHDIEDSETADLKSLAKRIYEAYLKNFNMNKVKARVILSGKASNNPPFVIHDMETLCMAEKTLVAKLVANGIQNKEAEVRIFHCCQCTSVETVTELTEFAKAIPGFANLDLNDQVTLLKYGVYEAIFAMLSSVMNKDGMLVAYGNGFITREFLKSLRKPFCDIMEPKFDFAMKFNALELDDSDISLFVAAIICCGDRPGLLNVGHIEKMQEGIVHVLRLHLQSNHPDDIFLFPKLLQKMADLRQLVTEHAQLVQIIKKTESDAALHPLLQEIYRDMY

According to PMC6355875 (Scientific Reports, 2019):

Columns and labels:
hPPAR-γ = hPPAR-γ (Homo sapiens, UniProt P37231); assay: GAL4-DBD hPPARγ/LBD luciferase reporter assay in HEK293T cells; assay type: cell-based; details: read-out: EC50 PPAR-γ; Table S7
hPPAR-α = hPPAR-α (Homo sapiens, UniProt Q07869); assay: GAL4-DBD hPPARα/LBD luciferase reporter assay in HEK293T cells; assay type: cell-based; details: read-out: EC50 PPAR-α; Table S7

Row | EC50 (hPPAR-γ) | EC50 (hPPAR-α) | SMILES
1 | > 10 µM | 1.65 µM | COc1cc(CNC2CCOc3ccccc32)ccc1OCC(=O)Nc1ccc(F)c(Cl)c1 (stereo not shown)
2 | 6.27 µM | > 10 µM | COc1ccc(C2=NN(c3nc(-c4ccccc4)c(CC(=O)O)s3)C(c3ccco3)C2)cc1 (stereo not shown)
3 | 1.19 µM | > 10 µM | CC(OC(=O)c1ccc(CO)cc1)C(=O)Nc1ccc(OCc2ccccc2)cc1 (stereo not shown)
4 | 0.348 µM | 7.64 µM | CC(Oc1ccc(C(=O)NCc2cc([N+](=O)[O-])ccc2O)cn1)c1ccccc1 (stereo not shown)
5 | 5.37 µM | 3.33 µM | COc1cc(C(=O)/C=C/c2cn(-c3ccccc3)nc2-c2cc3ccccc3o2)ccc1OCC(=O)O
6 | 5.84 µM | 4.45 µM | COc1ccc(C(=O)/C=C/c2ccc(C(F)(F)F)cc2)cc1CSCC(=O)O
7 | > 10 µM | 1.86 µM | O=C(O)COc1ccc(/C=C/C(=O)c2ccc(C3CCCCC3)cc2)cc1
8 | 8.11 µM | > 10 µM | O=C(NCc1ccc(COCC(F)(F)F)cc1)N1CCN(c2ccccc2O)CC1
9 | > 10 µM | 9.02 µM | Cc1cc(C(=O)COc2ccc(CC(=O)O)cc2)c(C)n1-c1ccc(F)c(Cl)c1
10 | 1.61 µM | 2.2 µM | COc1ccc(C(=O)/C=C/c2cccc(C(F)(F)F)c2)cc1CSCC(=O)O
11 | > 10 µM | 8.83 µM | CC(C)Oc1ccc(-c2nn(-c3ccccc3)cc2CNCCCN2CCC(O)CC2)cc1
12 | 7.18 µM | > 10 µM | COc1ccc(-c2nnc(SCC(=O)N3CCN(c4cccc(C(F)(F)F)c4)CC3)[nH]2)cc1
13 | > 10 µM | 8.37 µM | COc1ccc(NC(=O)c2ccc(COC(=O)c3ccc(C)c(O)c3)cc2)cc1
14 | 6.92 µM | > 10 µM | COc1cc(CN(C)C(=O)NCc2cccc(O)c2)ccc1OCc1ccccc1
15 | 8.75 µM | > 10 µM | Cc1ccc2[nH]c(SCC(=O)c3cc(C)n(-c4ccc5c(c4)OCCO5)c3C)nc2c1
16 | 8.36 µM | > 10 µM | Cc1cccc(OCC(=O)NCc2ccc(N3CCC(CO)CC3)cc2)c1
17 | > 10 µM | 7.7 µM | COc1ccc(CCC(=O)Nc2ccc(/C=C/C(=O)O)cc2)cc1OC
18 | 9.05 µM | > 10 µM | COc1ccc(Oc2ccc(CNC(=O)c3cc4c(cc3O)OCO4)cn2)cc1
19 | > 10 µM | 9.55 µM | COc1cc(C(=O)NCc2ccc(C(=O)O)cc2)cc(Cl)c1OCC(C)C
20 | 7.84 µM | > 10 µM | O=C(O)c1ccc(OCCOc2ccc(Oc3ccccc3)cc2)cc1
21 | > 10 µM | 8.91 µM | COc1cc(/C=C/C(=O)OCC(=O)Nc2ccc(C(C)C)cc2)ccc1O
22 | > 10 µM | 7.85 µM | O=C(Nc1ccccc1O)C1CCN(C(=O)c2ccc(COc3ccccc3)o2)CC1
23 | 2.28 µM | > 10 µM | COc1cc(/C=C/C(=O)OCc2csc(Nc3ccc(C)cc3)n2)ccc1O
24 | > 10 µM | 4.78 µM | Cc1ccc(C(=O)Nc2cccc(CNCc3cccc(C(F)(F)F)c3)c2)cc1
25 | > 10 µM | 8.2 µM | OC(CN1CCC(CCCC2CCN(CC(O)c3ccccc3)CC2)CC1)c1ccccc1 (stereo not shown)
26 | 9.9 µM | 4.7 µM | CCn1c(-c2ccc3c(c2)OCCO3)cnc1SCC(=O)c1ccc(O)cc1O
27 | 6.87 µM | > 10 µM | CCCc1cc(O)nc(SCC(=O)NC(c2ccccc2)c2ccc(OC)cc2)n1 (stereo not shown)

Row | EC50 (hPPAR-γ) | EC50 (hPPAR-α) | SMILES
28 | > 10 µM | 7.75 µM | OCCN1CCN(CC(O)COc2ccc(C34CC5CC(CC(C5)C3)C4)cc2)CC1 (stereo not shown)
29 | > 10 µM | 6.82 µM | O=C(CCc1ccccc1O)NCc1ccc(Oc2cccnc2)c(F)c1
30 | > 10 µM | 8.32 µM | Cc1nn(-c2ccccc2)c(Cl)c1/C=C/C(=O)c1ccc(OC(C)C(=O)O)cc1 (stereo not shown)
31 | 1.21 µM | 4.55 µM | COc1cc(C(=O)/C=C/c2ccccc2OCc2ccccc2)ccc1SCC(=O)O
32 | 1.7 µM | 1.38 µM | Cc1nn(-c2ccccc2)c(Cl)c1/C=C/C(=O)c1ccc(OCCCC(=O)O)cc1
33 | 6.02 µM | > 10 µM | COc1ccc(CCNC(=O)N2CCC(c3ccc(O)cc3)CC2)cc1OC
34 | 7.01 µM | > 10 µM | O=c1oc2c(CN3CCN(CCO)CC3)c(O)ccc2cc1-c1nc2ccccc2s1
35 | 7.01 µM | 8.76 µM | COc1cc(/C=C/C(=O)c2ccc(SCC(=O)O)c(OC)c2)ccc1OC(F)F
36 | 8.76 µM | > 10 µM | COc1ccc(-c2cc(COc3cc4ccccc4cc3C(=O)O)on2)cc1
37 | 4.72 µM | 3.13 µM | COc1cc(/C=C/C(=O)OC(C)C(=O)Nc2ccc(C(C)C)cc2)ccc1O (stereo not shown)
38 | 7.77 µM | 2.36 µM | COc1ccc(C(=O)/C=C/c2ccc(OC(F)F)c(OC)c2)cc1CSCC(=O)O
39 | 7.47 µM | 6.77 µM | CCOc1cc(/C=C/c2cc(C(=O)O)c3ccccc3n2)ccc1OC(F)F
40 | > 10 µM | 4.64 µM | COc1ccc(CNC(=O)c2ccc(OCCC(C)C)cc2)cc1C(=O)O
41 | 6 µM | > 10 µM | COc1ccc(C(NCC(=O)Nc2ccc(N3CCCC3)cc2)c2ccccc2)cc1 (stereo not shown)
42 | 2.78 µM | 1.6 µM | COc1ccc(C(=O)/C=C/c2ccc(C(C)(C)C)cc2)cc1CSCC(=O)O
43 | 4.15 µM | > 10 µM | COc1ccc(Cl)cc1-c1nnc(SCC(=O)c2cc(C)n(-c3ccc4c(c3)OCCO4)c2C)[nH]1
44 | 6.31 µM | > 10 µM | Cc1ccc(OCCNC(C(=O)Nc2ccc([N+](=O)[O-])cc2Cl)c2ccccc2)cc1 (stereo not shown)
45 | 2.05 µM | 8.83 µM | O=C(COc1ccc(C(=O)/C=C/c2cccc(O)c2)cc1)Nc1ccccc1
46 | 7.21 µM | > 10 µM | Cc1cc(C(=O)CSc2n[nH]c(-c3ccccc3)n2)c(C)n1Cc1ccc2c(c1)OCO2
47 | 7.2 µM | > 10 µM | Cc1cccc2c(CN(Cc3ccc(-c4ccc(Cl)cc4)o3)Cc3cc(=O)oc4c(C)c(O)ccc34)cc(=O)oc12
48 | > 10 µM | 1.2 µM | COc1ccc(C(=O)/C=C/c2ccc(-c3ccccc3)cc2)cc1CSCC(=O)O
49 | 2.06 µM | > 10 µM | Cc1cc(C(=O)COC(=O)c2ccc(O)cc2O)c(C)n1-c1ccc(OC(F)F)cc1
50 | > 10 µM | 5.98 µM | CCCOc1ccc(OCC(=O)NCc2ccc(OC)c(C(=O)O)c2)cc1
51 | > 10 µM | 8.31 µM | O=C(O)CCCOc1ccc(C(=O)/C=C/c2cnn(Cc3ccccc3Cl)c2)cc1
52 | 0.949 µM | 4.81 µM | CC1CCN(c2ccc(NC(=O)CNC(c3ccc(F)cc3)c3cccs3)cc2)CC1 (stereo not shown)
53 | 8.62 µM | > 10 µM | CCc1ccc(-c2nnc(SCC(=O)c3cc(C)n(-c4cccc(C(F)(F)F)c4)c3C)[nH]2)cc1
